According to patent US12048783B2, “2,4-disubstituted pyridines as malodor counteracting ingredients” (FIRMENICH SA, priority 2017, dated 2024):

Target: T1, OR51E1 (Homo sapiens, UniProt Q8TCB6)
T1 construct: expressed in transfected cells
T1 sequence (Q8TCB6 1-318): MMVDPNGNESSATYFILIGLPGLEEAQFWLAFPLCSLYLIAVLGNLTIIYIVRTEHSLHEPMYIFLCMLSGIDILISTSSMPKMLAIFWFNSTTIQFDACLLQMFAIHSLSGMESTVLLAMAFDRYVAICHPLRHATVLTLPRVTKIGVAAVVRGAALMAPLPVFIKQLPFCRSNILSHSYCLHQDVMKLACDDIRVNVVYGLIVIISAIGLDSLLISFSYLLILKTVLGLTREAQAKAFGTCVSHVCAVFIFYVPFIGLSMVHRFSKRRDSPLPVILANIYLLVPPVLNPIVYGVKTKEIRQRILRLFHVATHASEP
Experiment: Inhibition of malodor compound induced olfactory receptor activity in stable cell lines
Assay type: cell-based
Details: inhibition of OR51E1 activity in presence of a single activating concentration of butyric acid

Q: For `CCCCCc1cc(C)ccn1`, which “EC50 for 4-methyl-2-pentyl-pyridine” value is on record?
A: OR51E1: Weak
